These results are taken from ChEMBL document CHEMBL4673253, “Discovery of EST73502, a Dual μ-Opioid Receptor Agonist and σ Receptor Antagonist Clinical Candidate for the Treatment of Pain” (J Med Chem, 2020).

By UniProt entry, the sequences of proteins in these tests, tags left out.
UniProt Q99720, whole entry: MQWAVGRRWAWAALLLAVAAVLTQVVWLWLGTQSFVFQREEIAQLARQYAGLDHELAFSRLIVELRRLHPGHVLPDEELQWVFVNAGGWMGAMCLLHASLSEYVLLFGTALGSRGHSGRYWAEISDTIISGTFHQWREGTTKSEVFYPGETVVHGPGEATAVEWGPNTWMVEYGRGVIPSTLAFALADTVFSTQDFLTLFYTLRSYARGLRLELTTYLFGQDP

As a reminder, the pKi is −log10 of the Ki, conventionally taken in molar units. Lower therefore signals a large Ki.

pKi: −log10 of the molar value.

For the assay, the target named is Sigma non-opioid intracellular receptor 1 (Homo sapiens, UniProt Q99720). The assay is described as follows: Displacement of 3H](+)-pentazocine from human sigma1 receptor expressed in HEK293 cell membranes incubated for 120 mins by liquid scintillation counting method. Further details: species or system Cell membrane.

The compound `C[C@H]1OC2(CCN(CCc3ccccc3)CC2)CN(C2CC2)C1=O` had a pKi of 7.24.
